“And” between values parts separate entries of the source, which are not always exact repeats. Equal values may be shown once.
Tests used:
[1] = tested on: BxPC-3 Human Pancreas Tumor Xenograft; experiment: BxPC-3 human pancreas tumor xenograft model: tumor weight and tumor growth inhibition; type: in vivo, mouse; conditions: Day 26 vs Day 1, relative to vehicle control (Group 1); deaths not included
Description: Compounds tested in the experiment were as follows. […] A concentration of 4.8 mg/ml was formulated to deliver a 24 mg/kg dose at a 5 ml/kg dose volume when administered subcutaneously. […] Nab-paclitaxel was manufactured by Abraxis BioScience LLC (Bridgewater, N.J.) and diluted in a 0.9% NaCl solution to a concentration of 1.5 mg/ml to deliver 15 mg/kg, in a 10 ml/kg dose volume. All standard agent preparations were made fresh prior to their administration.
BxPC-3 cells were obtained and prepared as follows. The BxPC-3 pancreas tumor cell line was received from American Type Culture Collection (ATCC, Manassas, Va.). Cultures were maintained in RPMI 1640 medium (Hyclone, Logan, Utah) supplemented with 5% fetal bovine serum. The cells were housed in a 5% CO2 atmosphere. The cultures were expanded in tissue culture flasks at a 1:3 split ratio until a sufficient amount of cells were harvested. […]
Seven days following inoculation, tumors were measured using calipers and tumor weight was calculated using the animal study management software, Study Director V.1.7.54 k (Study Log). […] Body weights were recorded when the mice were randomized and were taken twice weekly thereafter in conjunction with tumor measurements, on each of Days 1, 4, 8, 11, 15, 18, 22, 26, 30, 33, and 36. […]
Mean tumor growth inhibition (TGI) was calculated utilizing Formula A below (deaths were not included in the TGI calculations). […]

[2] = Description: All experiments were conducted on female athymic nude mice (Hsd:Athymic Nude-Foxn1nu) supplied by Harlan (Indianapolis, Ind.). Mice were received at four weeks of age, 12-15 grams in weight, and were acclimated for seven days prior to handling. The mice were housed in microisolator cages (Lab Products, Seaford, Del.) and maintained under specific pathogen-free conditions. All procedures were carried out under appropriate institutional guidelines for animal care.
Seven days following inoculation, tumors were measured using calipers and tumor weight was calculated using the animal study management software, Study Director V.1.7.54 k (Study Log). See Britten C D, et al. Enhanced antitumor activity of 6-hydroxymethylacylfulvene in combination with irinotecan and 5-fluorouracil in the HT29 human colon tumor xenograft model. Cancer Res 59:1049-1053, 1999. […] Body weights were recorded when the mice were randomized and were taken twice weekly thereafter in conjunction with tumor measurements, on each of Days 1, 4, 8, 11, 15, 18, 22, 26, 30, 33, and 36.
The study was terminated when the vehicle control reached an endpoint of 1500 mg, on Day 36.

SMILES	Day 26 % TGI [1]	Day 22 Average Weight ([2]; Day 22)	Day 4 Average Weight ([2]; Day 4)	Day 8 Average Weight ([2]; Day 8)	Day 11 % Weight Loss or Gain ([2]; Day 11, vs starting weight)	Day 18 Average Weight ([2]; Day 18)
Nc1ccn([C@@H]2O[C@H](CO)[C@@H](O)C2(F)F)c(=O)n1 [Gemcitabine]	15.3% and 15.3 (10/10) %	24.41 g				
O=C1[O][Pt]2([NH][C@@H]3CCCC[C@H]3[NH]2)[O]C1=O [Oxaliplatin]			20.40 g	20.65 g	−3.36%	20.45 g

— patent publication US20120196828A1, “SENSITIZATION OF CANCER CELLS TO TREATMENT” (priority 2011, published 2012)
